Key:
[1] = molecular target: T1, LexA-Smad1 (full length Smad1 fused in frame to the LexA DNA binding domain (1-202) in pEG202) (UniProt P0A7C2; Q15797); experiment: yeast two-hybrid screen, LexA-Smad1 bait, human fetal brain library
T1 construct: also called Smad1pEG202; full length Smad1 bait
From the text: From the pooled stock of the transformants, ten million cells are screened on U^-H^-W^-L^- galactose plates containing X-gal. Only those that form blue colonies are picked as candidate positives. […] Methods of sequencing employ such enzymes as the Klenow fragment of DNA polymerase I, Sequenase® (US Biochemical Corp, Cleveland, Ohio), Taq polymerase (Perkin Elmer, Norwalk, Conn.), thermostable T7 polymerase (Amersham, Chicago, Ill.), or combinations of recombinant polymerases and proofreading exonucleases such as the ELONGASE Amplification System (Gibco BRL, Gaithersburg, Md.). Preferably, the process is automated with machines such as the Hamilton Micro Lab 2200 (Hamilton, Reno Nev.), Peltier Thermal Cycler (PTC200; MJ Research, Watertown, Mass.) and the ABI 377 DNA sequencers (Perkin Elmer). […] The transformants are first streaked onto a master plate, then replicated onto two testing plates: U^-H^-W^- glucose plates with X-gal; U^-H^-W^- HW galactose/raffinose plates with X-gal.

Protein sequences, listed by entry. Tags and fused reporters are not part of them. Lines headed by an entry give the natural chain unless they say otherwise; changes in a name come on top.
UniProt Q15797: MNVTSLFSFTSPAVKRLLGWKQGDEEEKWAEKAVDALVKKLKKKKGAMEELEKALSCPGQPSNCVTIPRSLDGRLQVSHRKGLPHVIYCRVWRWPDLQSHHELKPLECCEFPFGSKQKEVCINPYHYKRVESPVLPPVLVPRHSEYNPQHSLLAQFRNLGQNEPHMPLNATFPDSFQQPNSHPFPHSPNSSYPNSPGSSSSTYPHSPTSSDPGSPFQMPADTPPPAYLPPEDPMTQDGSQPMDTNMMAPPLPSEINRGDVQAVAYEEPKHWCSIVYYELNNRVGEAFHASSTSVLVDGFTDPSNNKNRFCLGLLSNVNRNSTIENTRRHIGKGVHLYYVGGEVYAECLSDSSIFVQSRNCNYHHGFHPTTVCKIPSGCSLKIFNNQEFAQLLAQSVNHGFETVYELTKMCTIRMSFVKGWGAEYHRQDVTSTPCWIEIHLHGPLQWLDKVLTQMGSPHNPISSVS
UniProt Q15796, whole entry: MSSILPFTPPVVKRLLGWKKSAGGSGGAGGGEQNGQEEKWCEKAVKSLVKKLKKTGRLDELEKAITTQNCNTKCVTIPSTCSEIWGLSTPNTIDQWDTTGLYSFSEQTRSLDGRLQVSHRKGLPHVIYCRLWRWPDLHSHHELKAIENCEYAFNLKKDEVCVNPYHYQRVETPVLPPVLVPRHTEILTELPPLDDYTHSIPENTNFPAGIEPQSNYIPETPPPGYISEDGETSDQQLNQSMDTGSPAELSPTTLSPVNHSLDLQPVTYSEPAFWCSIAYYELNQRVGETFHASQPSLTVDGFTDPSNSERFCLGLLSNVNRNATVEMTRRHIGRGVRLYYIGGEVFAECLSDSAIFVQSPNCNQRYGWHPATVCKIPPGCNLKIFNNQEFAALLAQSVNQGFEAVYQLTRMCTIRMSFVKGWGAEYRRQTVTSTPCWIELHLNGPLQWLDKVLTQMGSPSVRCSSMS

Smad2 = Smad2 (UniProt Q15796); experiment: yeast two-hybrid
LexA-Smad1L (146-270) = molecular target: T2, LexA-Smad1L (146-270) (UniProt P0A7C2; Q15797, in part); experiment: yeast two-hybrid, X-Gal plates
T2 construct: Yeast two-hybrid LexA fusion in pEG202; also called central linker region of Smad1
From the text: The transformants are first streaked onto a master plate, then replicated onto two testing plates: U^-H^-W^- glucose plates with X-gal; U^-H^-W^- HW galactose/raffinose plates with X-gal.

B1: B42-HsN3 fusion protein (full length HsN3 fused to the B42 activation domain in pJG4-5) (other, human, UniProt P28070 1-264, looked up, not shown: large carriers)
chain: MEAFLGSRSGLWAGGPAPGQFYRIPSTPDSFMDPASALYRGPITRTQNPMVTGTSVLGVKFEGGVVIAADMLGSYGSLARFRNISRIMRVNNSTMLGASGDYADFQYLKQVLGQMVIDEELLGDGHSYSPRAIHSWLTRAMYSRRSKMNPLWNTMVIGGYADGESFLGYVDMLGVAYEAPSLATGYGAYLAQPLLREVLEKQPVLSQTEARDLVERCMRVLYYRDARSYNRFQIATVTEKGVEIEGPLSTETNWDIAHMISGFE
notes: Isolated from a human fetal brain library; also called clone 18; S1+18
[1]
  binding result: binds
Smad2
  binding result: no binding
LexA-Smad1L (146-270)
  binding result: no binding

Source: US6906179 (GENERAL HOSPITAL, dated 2005)
